From ChEMBL document CHEMBL5726741, “Enantiomers of the 1′,6′-isomer of neplanocin A” (2019)

Biological target: T1, AdoHcyase_NAD domain-containing protein (Oryctolagus cuniculus, UniProt G1SVH0)
T1 sequence (G1SVH0 whole entry): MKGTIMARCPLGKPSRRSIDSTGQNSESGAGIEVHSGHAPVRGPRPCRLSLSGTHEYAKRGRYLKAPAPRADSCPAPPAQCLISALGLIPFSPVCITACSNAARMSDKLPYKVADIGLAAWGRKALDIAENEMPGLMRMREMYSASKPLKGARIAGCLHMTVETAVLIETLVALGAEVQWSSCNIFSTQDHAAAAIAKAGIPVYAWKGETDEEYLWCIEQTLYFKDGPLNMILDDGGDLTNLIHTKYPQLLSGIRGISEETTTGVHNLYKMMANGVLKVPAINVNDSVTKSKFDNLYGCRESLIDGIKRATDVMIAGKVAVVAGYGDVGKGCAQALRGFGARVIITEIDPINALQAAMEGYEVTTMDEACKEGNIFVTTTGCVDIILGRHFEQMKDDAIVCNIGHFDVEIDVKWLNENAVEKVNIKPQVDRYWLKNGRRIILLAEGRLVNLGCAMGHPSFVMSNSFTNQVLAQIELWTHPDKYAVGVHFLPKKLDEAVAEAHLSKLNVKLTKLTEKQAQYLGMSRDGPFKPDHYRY
Test: S-Adenosylhomocysteine Hydrolase (SAHase) Inhibition: As a consequence of "D"-Isoneplanocin and "L"-Isoneplanocin, being isomers of Neplanocin A, which on one hand is a potent inhibitor of S-adenosylhomocysteine hydrolase (SAHase), a mechanism agreed upon as one source of its antiviral activity and on the other hand thought to contribute to cytotoxicity, the inhibitory efficiency on SAHase …

Compound | IC50 [nM]
Nc1ncnc2c1ncn2C1=C[C@@H](CO)[C@@H](O)[C@H]1O | 27
Nc1ncnc2c1ncn2C1=C[C@H](CO)[C@@H](O)[C@H]1O | 0.9
